Reference: patent publication US10662171B2, “Antidiabetic bicyclic compounds” (Merck Sharp & Dohme Corp., priority 2014, dated 2020)

Protein sequences, listed by entry. Tags and fused reporters are not part of them.
UniProt O14842, whole entry: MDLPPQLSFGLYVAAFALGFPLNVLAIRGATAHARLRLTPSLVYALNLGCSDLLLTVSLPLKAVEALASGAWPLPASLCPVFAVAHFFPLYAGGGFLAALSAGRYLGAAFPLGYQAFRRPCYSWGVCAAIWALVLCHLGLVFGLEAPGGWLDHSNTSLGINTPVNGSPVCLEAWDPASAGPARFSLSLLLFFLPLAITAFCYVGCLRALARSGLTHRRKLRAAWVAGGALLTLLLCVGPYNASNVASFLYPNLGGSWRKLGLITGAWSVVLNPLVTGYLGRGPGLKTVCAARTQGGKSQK

Target: human GPR40 (Homo sapiens, UniProt O14842)
Assay: Inositol Phosphate Turnover (IP1) Assay 1
Details: read-out: Human IP1 EC50 (nM) (IP1) Assay 1; HEK cells stably expressing human GPR40; compound transferred via pocket tip; 60 minutes at 37 degrees
Experimental: Human and mouse GPR40 stable cell-lines were generated in CHO cells stably expressing NFAT BLA (Beta-lactamase). A human GPR40 stable cell-line was generated in HEK cells stably expressing the aequorin expressing reporter. The expression plasmids were transfected using lipofectamine (Life Technologies) following manufacturer's instructions. Stable cell-lines were generated following drug selection.
The assay is performed in 384-well format. HEK cells stably expressing human GPR40 are plated at 15,000 cells per well in growth medium (DMEM/10% fetal calf serum). Cell plates are then incubated 16 hours at 37 degrees in a 5% CO2 incubator.
Measurement of Inositol Phosphate Turnover (IP1) is performed using the CisBio IP-One kit (Part number 62IPAPEB). After the 16 hour incubation, the cells are washed with HEPES buffer and 10 ul of stimulation buffer (prepared as described in the kit) is added to each well. In a separate plate, compounds are diluted in DMSO (400-fold over the final concentration in the assay well) and 25 nl is transferred via pocket tip to the appropriate well in the assay cell plate. The plates are then incubated for 60 minutes at 37 degrees. […] The plates are then read in a Perkin Elmer EnVision or equivalent reader able to measure FRET. […]

COc1ccc(F)c(-c2ccc(C3COc4ccc(C(C5CC5)C(C)C(=O)O)cc4C3)cc2)c1 (stereo not shown)
EC50: 9 nM
